# Values quoted from earlier work, collected in patent US20190298669A1 (priority 2018, published 2019).
# System: tumor growth
# Conditions: two weeks oral dosing, daily dose 200 mg/kg; cited from earlier work
smiles,measurement,value
O=C(NOCC1CC1)c1ccc(F)c(F)c1Nc1ccc(I)cc1Cl,toxicity to mice,not toxic
